Data: US20060052582A1 (published 2006)

Chains of the proteins cited; added tags and fusions are not shown. Lines headed by an entry give the natural chain unless they say otherwise; changes in a name come on top.
UniProt Q8TD19: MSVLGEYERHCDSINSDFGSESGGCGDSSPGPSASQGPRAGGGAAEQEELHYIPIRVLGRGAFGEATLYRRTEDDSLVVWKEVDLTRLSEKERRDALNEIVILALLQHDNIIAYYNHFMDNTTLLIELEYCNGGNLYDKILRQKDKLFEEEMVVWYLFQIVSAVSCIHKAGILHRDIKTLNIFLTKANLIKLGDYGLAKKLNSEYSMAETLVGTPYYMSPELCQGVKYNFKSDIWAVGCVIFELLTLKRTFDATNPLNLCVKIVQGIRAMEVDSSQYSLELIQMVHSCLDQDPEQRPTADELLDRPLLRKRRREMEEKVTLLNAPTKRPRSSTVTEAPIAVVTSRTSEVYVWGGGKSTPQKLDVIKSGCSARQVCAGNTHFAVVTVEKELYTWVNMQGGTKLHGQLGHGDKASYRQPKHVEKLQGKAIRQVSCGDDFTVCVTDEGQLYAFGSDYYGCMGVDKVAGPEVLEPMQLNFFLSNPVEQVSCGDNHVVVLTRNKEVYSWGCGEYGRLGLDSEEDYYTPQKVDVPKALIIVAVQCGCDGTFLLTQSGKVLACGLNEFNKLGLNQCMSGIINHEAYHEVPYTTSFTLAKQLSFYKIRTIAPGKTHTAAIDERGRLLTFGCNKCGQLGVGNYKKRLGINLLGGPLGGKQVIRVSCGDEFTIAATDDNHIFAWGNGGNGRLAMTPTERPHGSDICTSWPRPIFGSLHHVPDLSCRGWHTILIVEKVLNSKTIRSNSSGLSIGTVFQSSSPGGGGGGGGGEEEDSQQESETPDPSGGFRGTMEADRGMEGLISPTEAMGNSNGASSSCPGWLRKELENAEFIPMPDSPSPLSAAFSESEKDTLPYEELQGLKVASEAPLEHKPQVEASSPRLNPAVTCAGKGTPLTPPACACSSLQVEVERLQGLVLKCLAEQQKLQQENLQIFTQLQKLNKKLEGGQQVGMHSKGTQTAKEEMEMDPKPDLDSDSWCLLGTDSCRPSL

Target: T1, FLAG Nercc (1-891) (human, UniProt Q8TD19 1-891)
T1 sequence: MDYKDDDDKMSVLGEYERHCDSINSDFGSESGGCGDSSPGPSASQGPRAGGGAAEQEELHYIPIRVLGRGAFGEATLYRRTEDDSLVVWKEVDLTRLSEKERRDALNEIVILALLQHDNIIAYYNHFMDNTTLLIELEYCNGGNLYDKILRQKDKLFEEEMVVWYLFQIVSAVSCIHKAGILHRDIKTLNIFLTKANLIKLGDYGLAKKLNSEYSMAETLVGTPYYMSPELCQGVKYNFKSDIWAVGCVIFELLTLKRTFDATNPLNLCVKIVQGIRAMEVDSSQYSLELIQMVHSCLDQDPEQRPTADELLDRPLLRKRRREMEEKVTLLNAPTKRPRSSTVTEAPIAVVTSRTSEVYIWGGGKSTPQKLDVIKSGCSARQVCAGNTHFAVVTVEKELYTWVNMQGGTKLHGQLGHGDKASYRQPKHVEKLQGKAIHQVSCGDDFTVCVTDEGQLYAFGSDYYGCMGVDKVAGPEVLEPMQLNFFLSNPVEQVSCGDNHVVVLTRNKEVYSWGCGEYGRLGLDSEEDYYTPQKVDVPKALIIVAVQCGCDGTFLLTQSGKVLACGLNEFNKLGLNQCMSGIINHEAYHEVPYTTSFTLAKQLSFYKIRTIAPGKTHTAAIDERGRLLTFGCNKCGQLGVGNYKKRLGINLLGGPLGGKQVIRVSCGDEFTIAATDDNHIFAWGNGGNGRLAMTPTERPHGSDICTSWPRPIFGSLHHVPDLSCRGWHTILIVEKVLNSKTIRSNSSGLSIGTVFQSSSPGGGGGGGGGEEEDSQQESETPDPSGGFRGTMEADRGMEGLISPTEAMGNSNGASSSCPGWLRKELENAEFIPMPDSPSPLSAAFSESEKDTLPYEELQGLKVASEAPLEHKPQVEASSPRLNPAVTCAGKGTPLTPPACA
Test: GST-agarose pull-down from co-transfected HEK293 cells, anti-FLAG blot

B1: GST Nercc (891-940) (other)
chain: MSPILGYWKIKGLVQPTRLLLEYLEEKYEEHLYERDEGDKWRNKKFELGLEFPNLPYYIDGDVKLTQSMAIIRYIADKHNMLGGCPKERAEISMLEGAVLDIRYGVSRIAYSKDFETLKVDFLSKLPEMLKMFEDRLCHKTYLNGDHVTHPDFMLYDALDVVLYMDPMCLDAFPKLVCFKKRIEAIPQIDKYLKSSKYIAWPLQGWQATFGGGDHPPKSDLVPRGSPGACSSLQVEVERLQGLVLKCLAEQQKLQQENLQIFTQLQKLNKKLEGGQQV
notes: also called GST fusion to the Nercc coiled coil
- binding result: no binding
